From patent US20090104257A1 (priority 2007, published 2009) come the findings set out here.

The nature of this series: Concentration of vancomycin in the lungs of infected mice (Example 9). To be noted: IP injections, 4 days after the end of therapy.

Consider `CN[C@H](CC(C)C)C(=O)N[C@H]1C(=O)N[C@@H](CC(N)=O)C(=O)N[C@H]2C(=O)N[C@H]3C(=O)N[C@H](C(=O)N[C@H](C(=O)O)c4cc(O)cc(O)c4-c4cc3ccc4O)[C@H](O)c3ccc(c(Cl)c3)Oc3cc2cc(c3O[C@@H]2O[C@H](CO)[C@@H](O)[C@H](O)[C@H]2O[C@H]2C[C@](C)(N)[C@H](O)[C@H](C)O2)Oc2ccc(cc2Cl)[C@H]1O` [Vancomycin, vancomycin], for which the “concentration of vancomycin in the lungs” value is given as “No detectable concentrations”.
